We go through 1 compound from patent US10702486B2, “Treatment of CNS disorders with trans 4-(3,4-dichlorophenyl)-1,2,3,4-tetrahydro-1-naphthalenamine” (SUNOVION PHARMACEUTICALS INC., priority 2002, dated 2020).

Chains of the proteins cited; added tags and fusions are not shown.
UniProt P31652, whole entry: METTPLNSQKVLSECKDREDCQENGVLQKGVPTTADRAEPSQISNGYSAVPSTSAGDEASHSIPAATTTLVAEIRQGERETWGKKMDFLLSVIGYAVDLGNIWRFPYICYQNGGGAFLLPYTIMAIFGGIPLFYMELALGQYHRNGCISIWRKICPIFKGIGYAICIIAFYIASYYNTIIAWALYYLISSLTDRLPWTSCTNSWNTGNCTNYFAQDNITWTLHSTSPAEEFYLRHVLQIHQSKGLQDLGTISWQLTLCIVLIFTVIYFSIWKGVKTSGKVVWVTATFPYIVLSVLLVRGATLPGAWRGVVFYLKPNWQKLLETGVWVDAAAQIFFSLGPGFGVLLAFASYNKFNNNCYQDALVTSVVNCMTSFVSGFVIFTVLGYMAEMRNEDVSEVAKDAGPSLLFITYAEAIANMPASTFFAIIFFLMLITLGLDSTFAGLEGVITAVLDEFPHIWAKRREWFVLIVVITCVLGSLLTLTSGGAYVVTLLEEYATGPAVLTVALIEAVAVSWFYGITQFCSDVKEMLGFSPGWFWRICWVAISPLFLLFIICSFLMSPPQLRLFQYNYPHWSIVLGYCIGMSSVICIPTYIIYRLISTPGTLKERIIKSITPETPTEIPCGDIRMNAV

One may read the IC50 as the concentration needed to halve the response being measured.

In this assay the target is T1, functional uptake of serotonin (5-HT) (Rattus norvegicus, UniProt P31652).
T1 construct: synaptosomes isolated in a 0.32M sucrose buffer from a male Wistar rat cortex; from tissue
The assay can be described thus: Serotonin functional uptake assay in rat synaptosomes. As to conditions: [3H]5-hydroxytryptamine, 15 min at 37° C. The assay is classed as biochemical.

`N[C@@H]1CC[C@@H](c2ccc(Cl)c(Cl)c2)c2ccccc21` (racemic) [P + Q, trans-4-(3,4-dichlorophenyl)-1,2,3,4-tetrahydro-1-naphthalenamine]: the IC50 amounted to 0.041 µM.
